For the series, the system named is BGC823 human gastric adenocarcinoma. The series can be described thus: Anti-BGC823 human gastric adenocarcinoma in BALB/c (nu/nu) nude mice. The series is classed as in vivo. The following applies: 1 W; mg/kg BW: total saponins 1.5, Compound 1, combination 1 & 19, 5-FU 20; Sc; in g (unit assumed). The procedure:
Human resources gastric adenocarcinoma cell line BGC823 was cultured in the same condition as the experiment 4.
The body weight and the tumor volume were measured and recorded weekly. The tumor volume was calculated according to the formula below.
Tumors were departed and weighed. Tumor Index and inhibition rate were calculated as below: […]
Wacao total saponins group, Compound (1), (2) and 5-FU were respectively dissolved into sterile water, sterilized with filtration. Compound (1)+5-FU, Compound (2)+5-FU were prepared as 1:19 respectively, sterilized with filtration.

Turning to `COC(=O)C1CC(O[C@H]2CC[C@]3(C)[C@H]4C=CC5[C@@H]6CC(C)(C)CC[C@]6(C(=O)OC6OC(C)C(OC(=O)/C=C/c7ccc(C)cc7)C(OC(C)=O)C6OC6CC(C)C(O)C(O)C6O)[C@H](O)C[C@@]5(C)[C@]4(C)CC[C@H]3[C@]2(C)C=O)C(OC2OC(CO)C(O)C(O)C2O)C(OC2OCC(O)C(O)C2O)C1O` (stereo partly shown) [Compound (2), sinocrassuloside VII], the “body weight of BGC823-bearing nude mice” value is reported as 21.90 ± 0.88.

The record behind these values is patent US20170143748A1, “ANTI-TUMOR PHARMACEUTICAL APPLICATION OF PENTACYCLIC TRITERPENE SAPONIN COMPOUNDS OF SZECHUAN MELANDIUM ROOT” (priority 2014, published 2017).
